These results are taken from ChEMBL document CHEMBL1687761.

One series relates to Escherichia coli. Put plainly: Activity of Escherichia coli XL1-Blue wild-type IMP-1 beta-lactamase by spectrophotometer.
The test system of series [1] is CO/N=C(\C(=O)N[C@@H]1C(=O)N2C(C(=O)O)=C(COC(N)=O)CS[C@H]12)c1ccco1. Put plainly: Ratio of Kcat to Km for Escherichia coli XL1-Blue wild-type VIM-2 beta-lactamase by spectrophotometer.
For series [2] the test system is unchanged. The series can be described thus: Activity of Escherichia coli BL21(DE3) wild-type VIM-2 beta-lactamase by spectrophotometer.
The test system is the same in series [3]. The series can be described thus: Activity of Escherichia coli XL1-Blue wild-type VIM-2 beta-lactamase by spectrophotometer.
Series [4] has the same test system. Put plainly: Ratio of Kcat to Km for Escherichia coli BL21(DE3) wild-type VIM-2 beta-lactamase by spectrophotometer.

Consider `CO/N=C(\C(=O)N[C@@H]1C(=O)N2C(C(=O)O)=C(COC(N)=O)CS[C@H]12)c1ccco1`, for which, in the series on Escherichia coli, the Km amounted to 37 µM and the kcat worked out at 8 s⁻¹.
For “Metallo-beta-lactamase (Escherichia coli) (from UniProt Q5U7L7)”, the kcat/Km in series [1] and in series [4] was 0.4 µM⁻¹ s⁻¹ each time. Further, the Km in series [2] and in series [3] was 20 µM in each case. In addition, the kcat in series [2] and in series [3] was 8 s⁻¹ each time.
